Two compounds from patent publication US11278587B2 (9 METERS BIOPHARMA, INC., priority 2018, dated 2022) can be followed below.

The series has as its system RET melanoma cells. Kind of series: RET melanoma model, tumor size, growth kinetics, survival.

Square brackets hold non-standard residues; d marks the D form. Ends that are not written are not given here. Peptide text beside a SMILES is read from it.

Take `CC(C)C[C@@H](NC(=O)[C@H](NC(=O)CNC(=O)CN)C(C)C)C(=O)N[C@@H](C(=O)N[C@H](CCC(N)=O)C(=O)N1CCC[C@@H]1C(=O)NCC(=O)O)C(C)C` [(d)-larazotide] (H-GG[dV][dL][dV][dQ][dP]G-OH): where the note is “RET melanoma mice, (d)-larazotide with or without cICB”, the “signs of toxicity in treated animals” value was “appeared healthy with no overt signs of toxicity”.
In the case of GGVLVQPG [larazotide], the “RET tumor outgrowth, standalone therapy” value (oral gavage five times a week from day of tumor injection, no ICB, FIG. 2B) is reported as “tended to boost RET outgrowth within the first 10 days”.
